The results in this text go back to PubChem BioAssay AID2462 (Broad Institute, 2010).

SMILES strings stand for the structures. Only a part is listed here, and it is no random draw. Some structures show a salt or complex split into parts, the way the source records it. Active and inactive are the calls of the source.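 Rule for the calls: active = over half of replicate activation scores above 10%, or exactly half above 10 with the replicate mean above 10; inconclusive = replicate mean below 10 yet half the replicates above 10; inactive = over half of replicates below 10.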

This test in a line: inducers of caspase signal in A1-primed MEFs – cell-based, luminescence, HTS, A1 inhibitor project, primary screen (AID 2462). To be noted: MEF A1-2A-BIM cells, Caspase-Glo 3/7 luminescence, 3 h; active compounds read high; percent of clofoctol response, vehicle zero; concentration not given here.
Turning to `O=P(Nc1nc2ccc(Cl)cc2s1)(c1ccccc1)c1ccccc1`, the caspase activation was inactive: -0.00653%.
Then `Cc1cc(C)cc(OP(C)(=O)Nc2cccc(C(F)(F)F)c2)c1` (stereo not given), with inactive: 0.0804%; and `CC(=O)Nc1ccc([As](=O)(O)O)cc1`, with inactive: -0.106%.
In the case of `O=C(O)c1ccccc1[As](=O)(O)O`, the caspase activation was inactive: 0.629%.
Turning to `COc1ccc(OP(C)(=O)Nc2ccccc2Br)cc1` (stereo not given), the caspase activation was inactive: 0.324%.
Consider `COc1ccccc1OP(C)(=O)Nc1ccc(C)c(C)c1` (stereo not given), for which the caspase activation was inactive: 0.551%.
For the compound `Cc1ccc(NP(=O)(Oc2ccccc2F)Oc2ccccc2F)nc1`, the caspase activation is inactive: -0.626%.
For `CN(C(=O)Cc1ccc(Cl)c(Cl)c1)[C@H]1CCCC[C@@H]1N1CCCC1`, the caspase activation was inactive: 0.107%.
With `Cc1cc(SC(NC(=O)c2ccc(F)cc2)C(Cl)(Cl)Cl)ncn1` (stereo not given), the caspase activation is inactive: -0.123%.
For `CCOP(=O)(Nc1ccccc1)OCC`, the caspase activation was inactive: -0.562%.
For the compound `O=C(NC(Sc1ccncn1)C(Cl)(Cl)Cl)c1ccccc1` (stereo not given), the caspase activation was inactive: -0.722%.
On to `Cc1c2non([O-])c-2c(C)[n+](=O)[n+]1[O-]`, for which the caspase activation is inactive: 0.671%.
Consider `Oc1ccccc1CNc1ccccn1`, for which the caspase activation is inactive: 0.618%.
Then `Cc1c(NP(C)(=O)Oc2ccc(C(C)C)cc2)c(=O)n(-c2ccccc2)n1C` (stereo not given), with inactive: -0.0176%; and `Nc1cc(N)c2nonc2c1[N+](=O)[O-]`, with inactive: 0.0629%.
For the compound `CC(C)CC(=O)NC(Sc1ccc(Cl)cc1)C(Cl)(Cl)Cl` (stereo not given), the caspase activation was inactive: -0.511%.
The result for `O=[N+]([O-])c1cc([N+](=O)[O-])c(Nc2ccccn2)c([N+](=O)[O-])c1` reads inactive: 2.28%; that for `CCc1ccc(OP(C)(=O)O)cc1`, inactive: -0.171%; that for `COc1ccccc1OP(C)(=O)Nc1ccc(C)cc1C` (stereo not given), inactive: -1.22%.
For the compound `CP(=O)(Nc1ccccn1)Oc1ccccc1` (stereo not given), the caspase activation is inactive: 1.84%.
For the compound `Cc1ccc(N/C(=N/P(=O)(N2CCOCC2)N2CCOCC2)N2CCOCC2)cc1`, the caspase activation was inactive: 0.114%.
As for `CN(C(=O)Cc1ccc(Cl)c(Cl)c1)[C@H]1CCCC[C@H]1N1CCCC1`, the caspase activation was inactive: 0.436%.
For `COc1ccccc1OP(C)(=O)Nc1ccc(Br)cc1` (stereo not given), the caspase activation was inactive: 0.152%.
On to `NC(=O)c1cc([N+](=O)[O-])cc([N+](=O)[O-])c1N`, for which the caspase activation was inactive: -0.654%.
Consider `CN1CCCC(OC(=O)C(c2ccccc2)c2ccccc2)C1` (stereo not given), for which the caspase activation was inactive: 1.27%.
Consider `Clc1ccc(Cl)c(NC2=NCC(CBr)S2)c1` (stereo not given), for which the caspase activation is inactive: 2.81%.
Regarding `CN(C)CCOC(=O)C(O)(c1ccccc1)C1CCCC1` (stereo not given), the caspase activation is inactive: 0.141%.
As for `Cc1ccc(OP(=O)(Nc2nccs2)Oc2ccc(C)cc2)cc1`, the caspase activation was inactive: 1.88%.
Regarding `COc1ccccc1OP(=O)(Nc1ccc(C)cn1)Oc1ccccc1OC`, the caspase activation was inactive: -0.501%.
Then `COc1ccc(OP(C)(=O)Nc2ccccn2)cc1` (stereo not given), with inactive: -0.911%.
Then `C[C@H]1OP(=O)(Oc2ccccc2)C[C@@H]2O[C@@H]21` (stereo not given in full), with inactive: -0.537%; and `C[C@@H]1C=CCP(=O)(Oc2ccccc2)O1` (stereo not given in full), with inactive: -0.0831%.
The result for `O=C(OCCN1CCN(CCOCc2ccccc2)CC1)C(O)(c1ccccc1)c1ccccc1` reads inactive: 0.262%; that for `O=C(OC1CN2CCC1CC2)c1ccc([N+](=O)[O-])cc1` (stereo not given), inactive: 1.44%.
With `CC(=O)c1ccc(N2CC2c2ccncc2)cc1` (stereo not given), the caspase activation is inactive: -1.93%.
With `CC(=O)Nc1ccc(Oc2c([N+](=O)[O-])cc([N+](=O)[O-])cc2[N+](=O)[O-])cc1`, the caspase activation was inactive: 0.314%.
The result for `CC(=O)Nc1ccc([As](=O)(O)O)c(O)c1` reads inactive: 0.642%.
For `COc1ccc2c(c1O)-c1c(O)c(OC)cc3c1[C@H](C2)[N+](C)(C)CC3.O=[N+]([O-])c1cc([N+](=O)[O-])c([O-])c([N+](=O)[O-])c1[O-]`, the caspase activation was inactive: 0.928%.
Consider `CCOc1ccc(C2=NCC(CBr)S2)cc1` (stereo not given), for which the caspase activation was inactive: 2.92%.
With `O=P1(Nc2nc3ccc(Cl)cc3s2)COc2ccccc2O1` (stereo not given), the caspase activation was inactive: -3.17%.
Regarding `CC(C)c1ccc(OP(C)(=O)Nc2ccc(SC(F)(F)F)cc2)cc1` (stereo not given), the caspase activation is inactive: -0.32%.
Then `CC(C)(C)C(=O)NC(Sc1ccccc1)C(Cl)(Cl)Cl` (stereo not given), with inactive: 0.51%; and `CP(=O)(Nc1ccccc1F)Oc1ccccc1` (stereo not given), with inactive: 0.419%; and `CCN(CC)CCCOC(=O)C(O)(c1ccccc1)C1CCCCC1` (stereo not given), with inactive: 0.0136%.
The result for `CCC(=O)N1C2C3N(C(=O)CC)C1C1N(C(=O)CC)C(C(N1C(=O)CC)N3C(=O)CC)N2C(=O)CC` reads inactive: -0.365%; that for `O=C(OC1CN2CCC1CC2)c1ccccc1` (stereo not given), inactive: -0.112%.
As to `Cc1ccc(OP(=O)(Nc2ccccn2)Oc2ccc(C)cc2)cc1`, the caspase activation is inactive: 0.785%.
Then `CC(=O)NC(SC(=S)N(CC(C)C)CC(C)C)C(Cl)(Cl)Cl` (stereo not given), with inactive: -0.0818%; and `COC(=O)c1cc2c(s1)N=C(c1ccccc1)N(C)P2(=O)N1CCOCC1` (stereo not given), with inactive: 1%; and `CCCCCOc1ccc(NP(C)(=O)Oc2ccc(Cl)cc2Cl)cc1` (stereo not given), with inactive: -0.307%.
`O=[N+]([O-])c1cc([N+](=O)[O-])c(OC2CCCCC2O)c([N+](=O)[O-])c1` (stereo not given): the caspase activation was inactive: -0.0334%.
Turning to `CN(C)C(=O)Oc1noc2ccccc12`, the caspase activation was inactive: -0.05%.
With `CC(NC(=O)COC(=O)C(O)(c1ccccc1)c1ccccc1)c1ccccc1` (stereo not given), the caspase activation was inactive: 0.644%.
With `Cc1ccccc1OP(=O)(Nc1ccccn1)Oc1ccccc1C`, the caspase activation is inactive: -0.255%.
Regarding `CP(=O)(Nc1ccccc1)Oc1ccc(F)cc1` (stereo not given), the caspase activation was inactive: -0.121%.
Consider `CCOC(=O)NC(Sc1ccccc1)C(Cl)(Cl)Cl` (stereo not given), for which the caspase activation is inactive: 0.155%.
The result for `Cc1ccc(NP(=O)(Oc2cccc(C)c2)Oc2cccc(C)c2)nc1` reads inactive: -0.168%; that for `c1ccc(-c2nn[nH]n2)c(-c2nn[nH]n2)c1`, inactive: 0.505%; that for `CCNC(=S)/N=C(\N)N[N+](=O)[O-]`, inactive: 0.505%.
On to `O=C(NC1CCS(=O)(=O)C1)NP(=S)(Oc1ccccc1)Oc1ccccc1` (stereo not given), for which the caspase activation is inactive: -1.39%.
Turning to `COc1ccc(OP(C)(=O)Nc2ccc(SC(F)(F)F)cc2)cc1` (stereo not given), the caspase activation was inactive: 0.316%.
In the case of `CCOC(=O)c1ccc(NP(C)(=O)Oc2ccc(F)cc2)cc1` (stereo not given), the caspase activation is inactive: -0.0254%.
With `O=[N+]([O-])c1cc([N+](=O)[O-])c(NCC2CCS(=O)(=O)C2)c([N+](=O)[O-])c1` (stereo not given), the caspase activation is inactive: -0.578%.
For `O=[As](O)(c1ccccc1)c1ccc(O)cc1`, the caspase activation was inactive: 0.031%.
Take `O=[N+]([O-])c1ccc(O)c(/C=N/Nc2ccc([N+](=O)[O-])cc2[N+](=O)[O-])c1`: the caspase activation was inactive: -0.47%.
In the case of `O=[N+]([O-])c1ncn(CCn2cnc([N+](=O)[O-])n2)n1`, the caspase activation was inactive: 1.28%.
Turning to `CC(=O)NC(SC(=S)N(C)C)C(Cl)(Cl)Cl` (stereo not given), the caspase activation was inactive: 0.204%.
The result for `O=[N+]([O-])c1ccc(OP2(=O)COCCO2)cc1` (stereo not given) reads inactive: 0.893%; that for `O=C(OC1CN2CCC1CC2)c1cccc(Cl)c1` (stereo not given), inactive: -0.255%.
Regarding `C(Cc1nn[nH]n1)Cc1nn[nH]n1`, the caspase activation is inactive: 0.47%.
Then `Nc1ccc([As](=O)(O)c2ccc([N+](=O)[O-])cc2)cc1`, with inactive: 0.083%; and `O=P(Nc1ccccn1)(c1ccc(Br)cc1)c1ccc(Br)cc1`, with inactive: -0.567%; and `CN(C)C1(CNC(=O)c2ccc(Cl)c(S(N)(=O)=O)c2)CCCCC1`, with inactive: 0.11%.
`COc1ccc(OP(C)(=O)Nc2cccc(Br)c2)cc1` (stereo not given): the caspase activation was inactive: 0.756%.
On to `COc1ccc(NP(C)(=O)Oc2ccccc2OC)cc1` (stereo not given), for which the caspase activation was inactive: -0.889%.
Take `C[C@H]1OP(=O)(Oc2ccccc2)[C@H](O)[C@H](O)[C@H]1N=[N+]=[N-]` (stereo not given in full): the caspase activation is inactive: 0.0664%.
Turning to `CN(C)CCOC(=O)C(O)(c1ccccc1)C1CCCCC1` (stereo not given), the caspase activation was inactive: 0.362%.
The result for `O=P(Nc1nc2ccccc2s1)(c1ccccc1)c1ccccc1` reads inactive: 0.321%.
Take `CP(=O)(Nc1ccc2c(c1)OCCO2)Oc1ccccc1` (stereo not given): the caspase activation was inactive: 0.396%.
`Cc1ccccc1NP(C)(=O)Nc1ccccc1C`: the caspase activation was inactive: -0.163%.
For the compound `CC(C)C(=O)NC(Sc1ccccc1)C(Cl)(Cl)Cl` (stereo not given), the caspase activation was inactive: 0.435%.
As for `O=P(Nc1nccs1)(c1ccccc1)c1ccccc1`, the caspase activation is inactive: 0.113%.
`CP(=O)(Nc1ccc(SC(F)(F)F)cc1)Oc1ccc(F)cc1` (stereo not given): the caspase activation was inactive: 0.942%.
The result for `c1nnnn1CCn1cnnn1` reads inactive: 0.37%; that for `CCOP(C)(=S)SCC(=O)NC(C)(CC)C(=O)O` (stereo not given), inactive: -0.401%.
